Structures are written as SMILES.

Chains of the proteins cited; added tags and fusions are not shown.
UniProt Q99685, whole entry: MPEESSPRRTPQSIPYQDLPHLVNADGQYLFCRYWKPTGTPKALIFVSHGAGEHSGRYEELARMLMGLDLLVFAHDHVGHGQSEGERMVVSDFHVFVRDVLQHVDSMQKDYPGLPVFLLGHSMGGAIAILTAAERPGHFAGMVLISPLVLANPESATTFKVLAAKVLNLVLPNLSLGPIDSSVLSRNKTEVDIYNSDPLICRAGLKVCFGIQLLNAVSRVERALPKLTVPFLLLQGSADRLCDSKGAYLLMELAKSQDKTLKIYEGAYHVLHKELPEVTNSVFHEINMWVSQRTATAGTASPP

For one assay, the target named is MAGL protein (Homo sapiens, UniProt Q99685). The assay can be described thus: 2-AG assay: MAGL inhibitory activity by hydrolysis of 2-arachidonoylglycerol to arachidonic acid, followed by mass spectrometry. Conditions: read-out: IC50 MAGL, 8 μM 2-arachidonoylglycerol, 15 min preincubation, 30 min reaction at RT, RapidFire MS readout. As for the experimental part:
Compounds of formula (I) were profiled for MAGL inhibitory activity by determining the enzymatic activity by following the hydrolysis of the natural substrate 2-arachidonoylglycerol (2-AG) resulting in arachidonic acid, which can be followed by mass spectrometry. This assay is hereinafter abbreviated “2-AG assay”. The 2-AG assay was carried out in 384 well polypropylene assay plates. Compound dilutions were made in 100% DMSO in a polypropylene plate in 3-fold dilution steps to give a final concentration range in the assay from 12.5 μM to […]. Compound dilutions were added to MAGL protein in assay buffer (50 mM TRIS, 1 mM EDTA, 0.01% (v/v) Tween-20, 2.5% (v/v) DMSO). After shaking, the plate was incubated for 15 min at RT. To start the reaction, 2-arachidonoylglycerol in assay buffer was added. The final concentrations in the assay was […] for MAGL protein and 8 μM 2-arachidonoylglyerol. After shaking and 30 min incubation at RT, the reaction was quenched by the addition of two assay volumes of acetonitrile containing 4 μM of d8-arachidonic acid. The amount of arachidonic acid formed was traced by an online SPE system (Agilent Rapidfire) coupled to a triple quadrupole mass spectrometer. A C18 SPE cartridge (Agilent G9205A) was used in an acetonitrile/water liquid setup. The mass spectrometer was operated in negative electrospray mode following the mass transitions 303.1→259.1 for arachidonic acid and 311.1→267.0 for d8-arachidonic acid. The activity of the compounds was calculated based on the ratio of intensities [arachidonic acid/d8-arachidonic acid].
For orientation: IC50 means the concentration that inhibits the measured activity by half. For the compound `O=C(N1CC2(CC(Cn3cc(C(F)(F)F)nn3)C2)C1)N1CC2(CC(c3nc(C4CC4)n[nH]3)C2)C1`, the IC50 was 42.2 nM.

For the compound `O=C(N1CC2(CC(Cn3ncc(C(F)(F)F)n3)C2)C1)N1CC2(CC(c3nc(C4(F)CC4)n[nH]3)C2)C1`, the IC50 is 0.85 nM.

With `CC(C)(C)Cn1nncc1-c1ccc(C2CN(C(=O)N3CC4(CC(c5nc(C6(O)CC6)n[nH]5)C4)C3)C2)cc1`, the IC50 stood at 0.3 nM.

With `O=C(N1CC2(CC(Cc3cn(CC(F)(F)F)nn3)C2)C1)N1CC2(CC(c3nc(C4CC4)n[nH]3)C2)C1`, the IC50 came out at 2.77 nM.

Consider `CS(=O)(=O)c1cc(Cl)ccc1N1CCC2(CC1)CN(C(=O)N1CC3(CC(c4nnc(C5CC5)[nH]4)C3)C1)C2`, for which the IC50 amounted to 1.41 nM.

Take `O=C(N1CC2(CC(c3nc(C4CC4)n[nH]3)C2)C1)N1CC2(CN(Cc3cn(CC(F)(F)F)nn3)C2)C1`: the 50% inhibitory concentration (IC50) is 735 nM.

With `Cn1nc(CC2CC3(C2)CN(C(=O)N2CC4(CC(c5nc(C6CC6)n[nH]5)C4)C2)C3)c(C(F)(F)F)n1`, the IC50 is 0.26 nM.

With `O=C(N1CC2(CC(Cc3cccc(S(=O)(=O)C(F)(F)F)c3)C2)C1)N1CC2(CC(c3nnc(C4(O)CC4)[nH]3)C2)C1`, the IC50 was 0.05 nM.

On to `Cn1nnc(CN2CC3(C2)CN(C(=O)N2CC4(CC(c5nc(C6CC6)n[nH]5)C4)C2)C3)c1C(F)(F)F`, for which the IC50 stood at 39.6 nM.

In the case of `O=C(N1CC2(CC(c3nnc(C4CC4)[nH]3)C2)C1)N1CC2(C1)CN(S(=O)(=O)c1cccc(C(F)(F)F)c1)C2`, the IC50 is 4.97 nM.

`CS(=O)(=O)c1ccccc1CN1CC2(C1)CN(C(=O)N1CC3(CC(c4nnc(C5CC5)[nH]4)C3)C1)C2`: the IC50 stood at 34.3 nM.

`CC(C)(C)Cn1nncc1-c1ccc(C2CN(C(=O)N3CC4(CC(c5nc(C6CC6)n[nH]5)C4)C3)C2)cc1`: the IC50 was 0.18 nM.

Regarding `CS(=O)(=O)c1ccc(CN2CC3(C2)CN(C(=O)N2CC4(CC(c5nnc(C6CC6)[nH]5)C4)C2)C3)cc1`, the IC50 turned out to be 78.8 nM.

For the compound `O=C(N1CC(c2ccc(N3CC(C(F)(F)F)C3)cn2)C1)N1CC2(CC(c3nnc(C4CC4)[nH]3)C2)C1`, the IC50 is 10.7 nM.

`O=C(N1CC2(CC(c3nc(C4CC4)n[nH]3)C2)C1)N1CC2(CN(Cc3cnn(CC(F)(F)F)n3)C2)C1`: the IC50 was found to be 96.8 nM.

With `O=C(N1CC2(CC(Cn3cc(C(F)(F)F)nn3)C2)C1)N1CC2(CC(c3nc(C4CC(F)(F)C4)n[nH]3)C2)C1`, the IC50 is 707 nM.

As to `O=C(N1CC2(CC(c3nc(C4CC4)n[nH]3)C2)C1)N1CC2(CN(Cc3snnc3C3CCC3)C2)C1`, the IC50 came out at 3.61 nM.

As to `O=C(N1CC2(CC(Cc3cnn(CC(F)(F)F)n3)C2)C1)N1CC2(CC(c3nc(C4CC4)n[nH]3)C2)C1`, the IC50 came out at 1.21 nM.

Regarding `O=C(N1CC2(CC(Cn3ncc(C(F)(F)F)n3)C2)C1)N1CC2(CC(c3nc(C4CC4)n[nH]3)C2)C1`, the IC50 came out at 0.29 nM.

For `O=C(N1CC2(CC(c3nc(C4CC4)n[nH]3)C2)C1)N1CC2(CN(Cc3snnc3C3CC3)C2)C1`, the IC50 came to 111 nM.

The same assay, now with this note: read-out: IC50 MAGL, 8 μM 2-arachidonoylglycerol, 15 min preincubation, 30 min reaction at RT, RapidFire MS readout, tested form: tosylate.
Turning to `O=C(N1CC(c2ccc(C3CC4(COC4)C3)nc2)C1)N1CC2(CC(c3nnc(C4CC4)[nH]3)C2)C1`, the IC50 was determined as 4120 nM.

For the origin of these results see patent US20250099448A1, “HETEROCYCLIC COMPOUNDS” (Hoffmann-La Roche Inc., priority 2022, published 2025).
